Entries after “also recorded” stand apart in the source; their conditions may differ.
How the values were obtained:
rat CB1 = biological target: T1, rat CB1 (Rattus norvegicus, UniProt P20272); assay: [35S]-GTPγS binding, membranes of HEK293s cells transfected with rat CB1; type: biochemical; conditions: agonist mode; mean ± SEM, at least three experiments
T1 construct: expressed in transfected cells; host or cells: HEK293s, transient transfection; membranes prepared
Experimental: (§1) HEK293s cells were transiently transfected with cDNA encoding rat or mouse CB1 or GPR55 and membranes were prepared as previously described (Ryberg et al. [2007]). In short, agonist activities in [^35S]-GTPγS binding assays were determined by the addition of ligand at 30°C for 45 min in membrane buffer [50 mmol/L NaCl, 5 mmol/L MgCl2, 0.5 mmol/L EDTA, 25 mmol/L HEPES (all Sigma, Gillingham, Dorset, UK); pH 7.4] containing 0.05 μg μL^−1 of membrane protein with 0.01% BSA, 25 μmol/L guanosine 5′-diphosphate (GDP), 100 μmol/L dithiothreitol (DTT), and 0.53 nmol/L [^35S]GTPγS (PerkinElmer) in a final volume of 200 μL. Antagonist assays were performed similarly, with the addition of an EC80 concentration of CP55940 as a nonselective CB1/CB2 agonist in conjunction with the ligand to be tested. Nonspecific binding was determined in the presence of 20 μmol/L unlabeled GTPγS. The reaction was terminated by addition of ice-cold wash buffer (50 mmol/L Tris-HCl, 5 mmol/L MgCl2, 50 mmol/L NaCl; pH 7.4) followed by rapid filtration under vacuum through 96-well B-glass fiber filter plates (PerkinElmer, Waltham, Massachusetts, USA) using a Biomek FX (Beckman Coulter, Bromma, Sweden). The filter plates were dried (30 min at 50°C) before scintillation liquid (PerkinElmer) was added onto the filters and the bound radioactivity was determined using a scintillation counter (Wallac). […]

By UniProt entry, the sequences of proteins in these tests, tags left out.
UniProt P20272, whole entry: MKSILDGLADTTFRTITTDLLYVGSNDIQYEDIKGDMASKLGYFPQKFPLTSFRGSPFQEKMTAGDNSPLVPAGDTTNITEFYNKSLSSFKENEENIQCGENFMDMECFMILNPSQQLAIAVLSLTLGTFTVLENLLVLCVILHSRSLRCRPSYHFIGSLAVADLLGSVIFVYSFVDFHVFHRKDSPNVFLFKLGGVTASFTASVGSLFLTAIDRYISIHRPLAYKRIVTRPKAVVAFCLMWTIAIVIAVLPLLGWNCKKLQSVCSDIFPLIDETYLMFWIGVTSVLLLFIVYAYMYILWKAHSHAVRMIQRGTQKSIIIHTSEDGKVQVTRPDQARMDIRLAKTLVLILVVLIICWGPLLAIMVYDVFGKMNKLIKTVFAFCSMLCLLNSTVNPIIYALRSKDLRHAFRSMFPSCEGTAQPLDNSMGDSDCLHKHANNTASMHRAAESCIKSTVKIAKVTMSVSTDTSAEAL
UniProt P47746, whole entry: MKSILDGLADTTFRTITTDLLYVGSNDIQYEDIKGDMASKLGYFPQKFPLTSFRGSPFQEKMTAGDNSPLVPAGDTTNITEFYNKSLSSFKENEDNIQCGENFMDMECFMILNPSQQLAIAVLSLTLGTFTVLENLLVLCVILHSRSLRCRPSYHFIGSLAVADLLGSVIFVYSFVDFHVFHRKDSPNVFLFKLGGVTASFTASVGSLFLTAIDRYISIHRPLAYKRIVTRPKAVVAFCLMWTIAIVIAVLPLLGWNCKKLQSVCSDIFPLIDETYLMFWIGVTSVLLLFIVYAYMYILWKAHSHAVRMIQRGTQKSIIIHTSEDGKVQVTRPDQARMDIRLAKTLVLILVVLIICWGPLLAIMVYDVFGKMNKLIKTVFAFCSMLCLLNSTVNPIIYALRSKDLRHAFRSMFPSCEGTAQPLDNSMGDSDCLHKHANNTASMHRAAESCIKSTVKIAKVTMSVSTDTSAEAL

mouse CB1 = biological target: T2, mouse CB1 (Mus musculus, UniProt P47746); assay: [35S]-GTPγS binding, membranes of HEK293s cells transfected with mouse CB1; type: biochemical; conditions: agonist mode; mean ± SEM, at least three experiments
T2 construct: expressed in transfected cells; host or cells: HEK293s, transient transfection; membranes prepared
Experimental: as §1

[1] = system: anesthetized WT and GPR55−/− mice; assay: Hemodynamic responses (MABP, HR) in anesthetized WT and GPR55−/− mice; type: in vivo, mouse; conditions: AM251 alone (1 and 3 mg kg−1)
Experimental: (§2) All experiments performed under terminal anesthesia were carried out following approval by Robert Gordon University Animal Ethics Panel. Anesthesia was induced in male SD rats (200–300 g) by sodium pentobarbital [60 mg kg^−1 intraperitoneal (i.p.) injection]. Male/female WT and GPR55^−/− mice (25–35 g) were anesthetized with a mixture of ketamine (120 mg kg^−1) and xylazine (16 mg kg^−1) via i.p. injection. For both species the trachea was cannulated to allow artificial respiration with room air when required (54 strokes min^−1 and tidal volume 1.5 mL 100 g^−1 for rats; 120 strokes min^−1 and tidal volume 100 μL 10 g^−1 for mice) and the left carotid artery and right jugular vein were cannulated for the measurement of arterial BP (MLT844 Physiological Pressure Transducer; AD Instruments, Oxford, UK) and drug administration, respectively. Core temperature was monitored continuously and maintained at 37–38°C with the aid of a Vetcare heated pad (Harvard Apparatus Ltd., Boston, Massachusetts, USA). Anesthesia was monitored by foot pinch reflex and maintained throughout by administration of additional doses of anesthetic (rats: 3–4 mg kg^−1 of sodium pentobarbital salt i.v.; mice: 50 μL 25 g^−1of ketamine/xylazine i.p.) every 40 min, or as required. […] Heart rate (HR) was calculated from the ECG and recorded throughout the entire experimental period. […]

[2] = system: anesthetized Sprague–Dawley (SD) rats; assay: Hemodynamic responses (MABP, HR) in anesthetized normotensive rats; type: in vivo, rat
Experimental: as §2

SMILES | EC50 (rat CB1) [nM] | EC50 (mouse CB1) [nM] | blood pressure response ([1]; GPR55−/− mice) | blood pressure response ([1]; WT mice) | blood pressure response ([2]; AM251 (1 and 3 mg kg−1) in the presence of CBD (50 μg kg−1)) | blood pressure response ([2]; AM251 on its own (1 and 3 mg kg−1))
C=C(C)[C@@H]1CCC(C)=C[C@H]1c1c(O)cc(CCCCC)cc1O [CBD, cannabidiol] | > 30000 |  |  |  |  | 
CCCCC/C=C\C/C=C\C/C=C\C/C=C\CCCC(=O)NCCO [AEA, anandamide] | 34 ± 2 | 25 ± 8 |  |  |  | 
Cc1c(C(=O)NN2CCCCC2)nn(-c2ccc(Cl)cc2Cl)c1-c1ccc(I)cc1 [AM251, 1-(2,4-dichlorophenyl)-5-(4-iodophenyl)-4-methyl-N-(piperidin-1-yl)-1H-pyrazole-3-carboxamide] |  |  | but not; also recorded: blunted response | induced a depressor response; also recorded: small and transient, but significant, depressor response | induced a depressor response | small and transient, but significant, depressor response

From PMC4492759, “Pharmacological profiling of the hemodynamic effects of cannabinoid ligands: a combined in vitro and in vivo approach” (Pharmacology Research & Perspectives, 2015)
